Laboratory results as given in patent publication US20250382344A1, “Soluble GLP1/GIP/NPY2 Receptor Triple Agonists” (Boehringer Ingelheim International GmH, priority 2024, published 2025).
Blank lines part the entries; values can stand above or below the binder they belong to.

By UniProt entry, the sequences of proteins in these tests, tags left out. Where a name states a change or a piece, a line headed by the entry shows the natural chain unless it says otherwise.
UniProt P49146, whole entry: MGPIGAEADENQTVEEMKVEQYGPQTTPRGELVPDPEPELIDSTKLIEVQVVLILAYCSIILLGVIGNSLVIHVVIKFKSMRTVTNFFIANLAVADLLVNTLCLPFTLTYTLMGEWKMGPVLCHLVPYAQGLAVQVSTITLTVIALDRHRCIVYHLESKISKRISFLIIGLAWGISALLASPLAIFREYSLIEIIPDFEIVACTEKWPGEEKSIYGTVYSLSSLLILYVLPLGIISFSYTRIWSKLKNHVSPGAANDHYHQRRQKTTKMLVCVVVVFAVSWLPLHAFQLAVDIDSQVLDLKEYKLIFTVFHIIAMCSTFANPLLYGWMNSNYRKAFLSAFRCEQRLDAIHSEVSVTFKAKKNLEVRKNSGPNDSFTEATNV
UniProt P43220: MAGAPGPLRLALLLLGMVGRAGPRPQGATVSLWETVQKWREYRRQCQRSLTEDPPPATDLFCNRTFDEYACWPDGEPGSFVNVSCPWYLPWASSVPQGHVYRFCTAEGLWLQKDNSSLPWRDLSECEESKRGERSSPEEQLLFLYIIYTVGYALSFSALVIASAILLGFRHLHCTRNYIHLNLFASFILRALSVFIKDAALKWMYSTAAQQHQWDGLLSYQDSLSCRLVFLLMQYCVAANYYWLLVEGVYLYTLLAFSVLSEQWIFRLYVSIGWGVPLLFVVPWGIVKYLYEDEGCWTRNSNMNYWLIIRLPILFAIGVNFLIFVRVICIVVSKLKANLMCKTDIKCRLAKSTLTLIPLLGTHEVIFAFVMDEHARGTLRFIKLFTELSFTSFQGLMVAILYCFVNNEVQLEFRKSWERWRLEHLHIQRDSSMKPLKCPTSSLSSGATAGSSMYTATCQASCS

What was measured:
Assay in all cases: cell-based or functional assay
[1] = target: human neuropeptide Y2 receptor (human, UniProt P49146 1-381)
human GLP-1 receptor [2] = target: human GLP-1 receptor (human, UniProt P43220 24-463)
human GIP receptor = target: T1, human GIP receptor (human, UniProt P48546 22-466)
T1 sequence (looked up): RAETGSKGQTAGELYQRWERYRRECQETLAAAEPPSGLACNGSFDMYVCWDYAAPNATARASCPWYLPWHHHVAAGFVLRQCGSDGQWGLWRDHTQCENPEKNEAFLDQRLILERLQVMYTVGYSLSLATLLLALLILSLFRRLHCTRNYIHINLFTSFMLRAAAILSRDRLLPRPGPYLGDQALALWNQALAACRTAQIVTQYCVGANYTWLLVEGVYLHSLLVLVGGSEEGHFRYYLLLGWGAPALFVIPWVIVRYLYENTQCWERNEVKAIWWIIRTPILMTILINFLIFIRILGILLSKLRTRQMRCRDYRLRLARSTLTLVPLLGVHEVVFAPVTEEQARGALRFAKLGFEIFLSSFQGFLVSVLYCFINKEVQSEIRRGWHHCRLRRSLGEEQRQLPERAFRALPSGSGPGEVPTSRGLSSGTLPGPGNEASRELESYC

human GLP-1 receptor [3] = target: human GLP-1 receptor (human, UniProt P43220 24-463); remark: listed apart in the source

EC50, CreLuc reporter, 0.5% hP [1]: 122 nM
B1: Compound 56 (peptide)
peptide: YXEGTFTSDYSIXLEKQAQXEFVRHLINKXTRQRY
modifications: Aib at 2, 13, 20, 30; Lys29 epsilon-amino acylated with C18DA-gGlu-gGlu-gGlu-gGlu-gGlu-gGlu; C-terminal amide

EC50, CreLuc reporter, 100% hP (human GLP-1 receptor [2]): 1.1 nM
B2: Compound 53 (peptide)
peptide: YXEGTFTSDYSIXLEKQAQXAFIRHLINKXTRQRY
modifications: Aib at 2, 20, 30; aMeL at 13; Lys29 epsilon-amino acylated with C20DA-gGlu-gGlu-gGlu-gGlu-gGlu-gGlu-eLys; C-terminal amide

EC50, CreLuc reporter, 100% hP (human GIP receptor): 7.6 nM
B3: Compound 149 (peptide)
peptide: YXEGTFTSDYSIXLEKQAQXEFVRHLINKXTRQRY
modifications: Aib at 2, 13, 20, 30; Lys29 epsilon-amino: C20DA-gGlu-gGlu-gGlu-gGlu-gGlu-gGlu-eLys; C-terminal amide

B4: Compound 1 (peptide)
peptide: YXEGTFTSDLSIXLEKQAQXAFVRHLINKXTRQRY
modifications: Aib at 2, 13, 20, 30; Lys29 epsilon-amino acylated with C20DA-gGlu-gGlu-gGlu-gGlu-gGlu-AHX-AHX; C-terminal amide
EC50, CreLuc reporter, 0.5% hP (human GLP-1 receptor [2]): 2.2 nM

EC50, CreLuc reporter, 100% hP (human GLP-1 receptor [2]): 2.4 nM
B5: Compound 9 (peptide)
peptide: YXEGTFTSDYSIXLEKQAQXAFVRHLINKXTRQRY
modifications: Aib at 2, 13, 20, 30; Lys29 epsilon-amino acylated with C18DA-gGlu-gGlu-gGlu-gGlu-gGlu-gGlu-AHX; C-terminal amide

EC50, CreLuc reporter, 100% hP (human GLP-1 receptor [3]): 4.1 nM
B6: Compound 141 (peptide)
peptide: YXEGTFTSDYSIXLEKQAQXAFVRHLINKXTRQRY
modifications: Aib at 2, 13, 20, 30; Lys29 epsilon-amino: C18DA-gGlu-gGlu-gGlu-gGlu-gGlu-eLys; C-terminal amide
